Molecular target: KIT (Homo sapiens, UniProt P10721)
Assay: Binding of dasatinib-magnetic substance to EGFP-labelled kinase in cells (magnetic pattern co-localization)
Conditions: KIT-EGFP (amino acids 545-976) in HeLa cells; dasatinib-biotin coated on streptavidin magnetic substance; magnetic field

By UniProt entry, the sequences of proteins in these tests, tags left out. Residues count along the entry.
UniProt P10721, 545-976: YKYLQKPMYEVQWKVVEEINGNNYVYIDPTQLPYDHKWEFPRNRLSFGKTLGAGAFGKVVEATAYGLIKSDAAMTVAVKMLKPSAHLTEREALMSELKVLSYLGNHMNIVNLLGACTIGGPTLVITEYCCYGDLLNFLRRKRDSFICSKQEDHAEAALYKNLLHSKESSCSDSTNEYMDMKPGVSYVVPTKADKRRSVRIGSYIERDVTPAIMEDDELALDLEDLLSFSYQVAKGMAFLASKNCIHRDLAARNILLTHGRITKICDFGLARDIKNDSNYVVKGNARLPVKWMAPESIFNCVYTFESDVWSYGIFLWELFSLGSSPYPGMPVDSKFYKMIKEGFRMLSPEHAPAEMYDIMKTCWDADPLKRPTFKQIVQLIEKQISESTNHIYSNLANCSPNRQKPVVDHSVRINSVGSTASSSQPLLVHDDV

## Cc1nc(Nc2ncc(C(=O)Nc3c(C)cccc3Cl)s2)cc(N2CCN(CCO)CC2)n1 [dasatinib, N-(2-chloro-6-methyl-phenyl)-2-(6-(4-(2-hydroxyethyl)-piperazin-1-yl)-2-methylpyrimidin-4-ylamino)thiazole-5-carboxamide]
  fluorescent pattern of kinase-EGFP overlapped with magnetization pattern (binding): showed the fluorescent patterns aligned in a magnetized direction
